{"sequences": {"note": "Chains of the proteins cited; added tags and fusions are not shown.", "UniProt P19784, whole entry": "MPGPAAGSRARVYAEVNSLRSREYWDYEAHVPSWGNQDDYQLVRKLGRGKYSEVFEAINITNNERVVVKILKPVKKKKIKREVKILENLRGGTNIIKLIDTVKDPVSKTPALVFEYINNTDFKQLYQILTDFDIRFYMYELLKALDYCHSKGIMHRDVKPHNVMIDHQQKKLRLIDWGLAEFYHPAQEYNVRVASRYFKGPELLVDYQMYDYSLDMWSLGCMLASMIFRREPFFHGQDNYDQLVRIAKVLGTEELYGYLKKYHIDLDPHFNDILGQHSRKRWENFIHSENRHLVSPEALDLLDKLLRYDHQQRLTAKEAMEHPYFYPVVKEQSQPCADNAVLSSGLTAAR", "UniProt P67870, whole entry": "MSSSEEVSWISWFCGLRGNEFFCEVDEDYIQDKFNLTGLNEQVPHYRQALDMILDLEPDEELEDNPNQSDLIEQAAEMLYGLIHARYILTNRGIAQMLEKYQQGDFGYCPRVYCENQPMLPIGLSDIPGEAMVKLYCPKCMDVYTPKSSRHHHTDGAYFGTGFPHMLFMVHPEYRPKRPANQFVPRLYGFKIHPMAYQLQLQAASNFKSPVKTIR", "UniProt P68400, whole entry": "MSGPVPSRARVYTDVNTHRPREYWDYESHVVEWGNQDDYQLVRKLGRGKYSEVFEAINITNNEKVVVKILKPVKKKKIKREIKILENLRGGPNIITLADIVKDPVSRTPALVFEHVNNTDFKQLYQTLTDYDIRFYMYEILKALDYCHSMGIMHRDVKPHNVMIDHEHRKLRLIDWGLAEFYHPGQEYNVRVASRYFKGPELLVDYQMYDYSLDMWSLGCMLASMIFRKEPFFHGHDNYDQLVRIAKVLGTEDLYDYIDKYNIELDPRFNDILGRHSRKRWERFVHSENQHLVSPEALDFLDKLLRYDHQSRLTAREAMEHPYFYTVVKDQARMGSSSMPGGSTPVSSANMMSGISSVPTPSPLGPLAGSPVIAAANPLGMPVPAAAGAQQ"}, "source": "ChEMBL document CHEMBL1764952", "about": "“A novel application of DDQ as electrophile in the Nenitzescu reaction” (Bioorg Med Chem, 2011)", "biological_target": "Casein kinase II (Homo sapiens, UniProt P19784+P67870+P68400)", "experiment": "Inhibition of human recombinant CK2 using RRRDDDSDDD-EDANS peptide substrate by capillary electrophoresis analysis", "type": "protein-complex assay", "data": [{"smiles": "CC(C)=CC(=O)c1oc2c(Cl)c(Cl)c(O)c(C#N)c2c1N", "values": [{"measurement": "IC50", "value": 200, "unit": "nM"}]}]}
